A selection: hits, their analogues and other compounds. The true share with any hit is near 0.53%.
CCT chaperon mod – cytosolic chaperonin activity modulation | purified chaperonin ATPase assay, HTRF ADP detection, 30 min | activity change, % (no concentration beside the values), hits read low | 0.3% of 360,000 active; in the data active = activity change below about -30%; note: % is set by controls: 0 for no effect and ±100 for the full control effect
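TRiC (40 or 20 nM final, by batch activity) in 30 mM Tris pH 7.4, 100 mM KCl, 5 mM MgCl2, 1 mM DTT was treated with compound at 76 uM single dose, then 10 uM ATP, 30 min at 37 °C. ADP was read by HTRF Transcreener.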
Rango-impB inh – Rango-importin beta binding inhibition | Rango CFP/YFP FRET sensor + importin beta, 45 min | Q14974 | Potency, µM (top dose mostly 92.2 µM), for the others: at the highest dose inhibition of complex formation | AID 540263 | 0.031% of 340,000 active;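 note: potency is the fitted concentration of half-maximal effect; 0% = DMSO wells and 100% = buffer wells lacking importin beta; nearly all actives have a fitted effect of over 15% in size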
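FRET biosensor (snurportin 1 IBB flanked by EYFP and cerulean), 50 nM, with compound 5 min, then 0.125 microM importin beta in PBS, 1 mM DTT, 0.02% Tween-20, 0.1% BSA. CFP/YFP ratio read after 45 min at room temperature; pre-read flags interference.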
Rango release inh – inhibitors of RanGTP-induced Rango-importin beta complex dissociation | Biochemical FRET Rango-importin beta, RanGTP-induced dissociation | Potency, µM (titrated, usually from 46.1 µM), without a hit: top-dose activity change, negative = inhibition | 0.071% of 340,000 active | AID 540253; note: potency is the fitted concentration of half-maximal effect; % of control where 0% means no effect; nearly all actives have a fitted effect of over 45% in size
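Quantitative HTS using a FRET biosensor: 0.1 uM Rango, 0.25 uM importin beta, 0.6 uM Ran, 2 mM GTP, 0.2 uM RCC1 final, PBS with DTT, Tween-20 and BSA. Post-read taken 45 min after Ran addition.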
MmCpn inh – inhibitors of Methanococcus maripaludis chaperonin TRiC (MmCpn). Potency, µM (series often up to 76.9 µM), without a hit: at the top dose activity, negative = inhibition, hits mostly inhibitors. 0.031% of 330,000 active. purified Mm-Cpn ATPase, ADP Transcreener TR-FRET; active = well fitted inhibition curve with a large enough effect; inconclusive = small, poorly fitted or top-dose-only effect; note: potency is the fitted concentration of half-maximal effect; % is set by controls: 0 for no effect and ±100 for the full control effect; nearly all actives have a fitted effect of over 80% in size
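ATPase turnover read by TR-FRET ADP competition (Eu cryptate antibody/ADP-d2, 665/590 nm): 10uM ATP final, 25nM Mm-CPN final, 30 min 37degC after 10-min compound preincubation, pH 7.4 Tris/KCl/MgCl2/DTT buffer.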
Giardia killer – kills Giardia lamblia; Giardia lamblia trophozoite viability; activity change, % at 7.66 µM, hits read low; 0.15% of 340,000 active; AID 540267; in the data active = activity change below about -80%; inconclusive = between about -30% and that limit;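 note: parasites exposed to compound for two days anaerobically before the ATP read; % is set by controls: 0 for no effect and ±100 for the full control effect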
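Giardia trophozoites, 100 cells per well, were exposed to compounds for 48 hrs at 37 deg C under anaerobic conditions; viability was then read as ATP content by bioluminescence after 15-30 min at room temperature.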
Active calls of the source: *; ? = inconclusive; . = no result given. Unless noted, calls come from the whole dose curve.

Each structure is followed by: CCT chaperon mod | Rango-impB inh | Rango release inh | MmCpn inh | Giardia killer
> CCn1c(C(=O)NC2CCC(C)CC2)cc2sccc21 (configuration not stated)
→ -80* | -3% | ? | 0% | 3
> CCOC(=O)N1CCC(NC(=O)c2cc3sccc3n2CC)CC1
→ -1 | -1% | 0% | 1% | 39
> Cc1csc(NC(=O)CSc2nc3[nH]c(=O)cc(O)c3s2)n1
→ -1 | -5% | 6% | . | -87*
> O=C(CN1C(=O)C2C3C=CC(C3)C2C1=O)NCCc1ccccc1 (configuration not stated)
→ -51* | 0% | 10% | ? | -13
> O=C(CN1C(=O)C2C3C=CC(C3)C2C1=O)NCc1ccccc1 (configuration not stated)
→ -3 | 2% | -8% | -2% | 16
> CCN1C(=O)/C(=C/C=C2/SCCN2C)SC1=S
→ 0 | 9% | -18% | 0% | -9
> CN1CCS/C1=C\C=C1/SC(=S)N(CC(=O)O)C1=O
→ -2 | 58µM* | ? | -8% | -19
> CN1/C(=C\C=C2/SC(=S)N(CC(=O)O)C2=O)C(C)(C)c2ccccc21
→ -1 | 23µM* | ? | -3% | 18
> CC(=O)OCC(NC(=O)C(Cc1ccccc1)NC(=O)OC(C)(C)C)C1OC(n2cc(C)c(=O)[nH]c2=O)C(OC(C)=O)C1OC(C)=O (configuration not stated)
→ . | . | . | . | 9
> O=C1C2C3CCCC3=C3CCCC3C2C(=O)N1c1ccccc1Cl (configuration not stated)
→ . | . | . | . | 17
> CCCC1OC2C[C@@H]3[C@H]4CCC5=CC(=O)C=C[C@]5(C)[C@H]4C(O)C[C@]3(C)[C@]2(C(=O)CO)O1 (some centres not stated)
→ . | . | . | . | -15
> Cc1ccc(C)c(OCCn2cc(/C=C(\C#N)C(=O)NCc3ccco3)c3ccccc32)c1
→ 1 | ? | 4.1µM* | 0% | 7
> COc1ccccc1OCCn1cc(/C=C(\C#N)C(=O)NCc2ccco2)c2ccccc21
→ -4 | ? | -10% | -1% | -8
> Cc1cc(-c2ccc(N=Nc3c(S(=O)(=O)O)cc4cc(S(=O)(=O)O)cc(N)c4c3O)c(C)c2)ccc1N=Nc1c(S(=O)(=O)O)cc2cc(S(=O)(=O)O)cc(N)c2c1O
→ . | . | . | 32µM* | .
> O=S(=O)(O)c1cc(O)c2c(O)c(N=Nc3cc(Cl)ccc3O)c(S(=O)(=O)O)cc2c1
→ -6 | ? | ? | -15% | -3
> O=C(Cc1ccccc1)N/N=C/c1ccc([N+](=O)[O-])s1
→ -2 | 1% | 17% | -20% | -91*
> O=C(N/N=C/c1ccc([N+](=O)[O-])s1)c1ccccc1
→ -4 | -3% | -15% | -1% | -90*
> Cc1ccnn1CC(=O)N/N=C/c1ccc([N+](=O)[O-])s1
→ 0 | 0% | -6% | 0% | -96*
> Cc1ccccc1C(=O)N/N=C/c1ccc([N+](=O)[O-])s1
→ 2 | ? | -4% | 1% | ?
> O=C(N/N=C/c1ccc([N+](=O)[O-])s1)C(O)c1ccccc1 (configuration not stated)
→ -1 | -1% | 3% | 0% | ?
> O=C(N/N=C/c1ccc([N+](=O)[O-])s1)c1ccccc1Br
→ 0 | -4% | -3% | -7% | -96*
> CC(C)[C@H](/C=C/C[Si](C)(C)C)[C@H](C)C(O)/C=C/CCCOC(=O)C(C)(C)C (some centres not stated)
→ . | . | . | . | -2
> O=C(O)c1ccc(S(=O)(=O)N[C@H](Cc2ccc(O)cc2)C(=O)O)cc1
→ . | . | . | 1% | .
> O=C(Nc1cccc2cccnc12)OCc1ccccc1
→ . | . | . | . | -22
> Cc1cc(C(=O)N/N=C/c2ccc([N+](=O)[O-])s2)c2ccccc2n1
→ -2 | 1% | 16% | -2% | -95*
> COc1ccccc1NC(=O)C(=O)N/N=C/c1ccc([N+](=O)[O-])s1
→ -1 | -1% | -1% | 4% | -90*
> Cc1cc(NC(=O)CS(=O)(=O)c2ccc(F)cc2)no1
→ 3 | -1% | 0% | 2% | -24
> Cc1cc(NC(=O)CS(=O)(=O)c2ccc(Cl)cc2)no1
→ -87* | 1% | 1% | 3% | -18
> O=C1c2ccccc2C(=O)N1c1ccc2ncccc2c1
→ . | . | . | . | 2

Random excerpt: 4 entries already listed
Each structure is followed by: CCT chaperon mod | Rango-impB inh | Rango release inh | MmCpn inh | Giardia killer
> O=C(N/N=C/c1ccc([N+](=O)[O-])s1)c1ccccc1
→ -4 | -3% | -15% | -1% | -90*
> O=C(N/N=C/c1ccc([N+](=O)[O-])s1)c1ccccc1Br
→ 0 | -4% | -3% | -7% | -96*
> Cc1csc(NC(=O)CSc2nc3[nH]c(=O)cc(O)c3s2)n1
→ -1 | -5% | 6% | . | -87*
> CCOC(=O)N1CCC(NC(=O)c2cc3sccc3n2CC)CC1
→ -1 | -1% | 0% | 1% | 39

Source: PubChem BioAssay
